According to patent publication US20050136015A1, “Topical use of halosalicylic acid derivatives” (priority 2003, published 2005):

Experiments:
Assay in all cases: MLC (minimal lethal concentration) test
Format in all cases: cell-based
Pseudomonas aeruginosa = tested on: Pseudomonas aeruginosa
Escherichia coli = tested on: Escherichia coli
[1] = tested on: Staphylococcus epidermidis
Aspergillus niger = tested on: Aspergillus niger
Candida albicans = tested on: Candida albicans

Structure (SMILES): O=C(O)c1ccccc1O [Salicylic Acid, salicylic acid]
- MLC, % Concentration for Bacterioidal Activity (Pseudomonas aeruginosa): 0.0625%
- MLC, % Concentration for Bacterioidal Activity (Escherichia coli): 0.125%
- MLC, % Concentration for Bacterioidal Activity [1]: 0.125%
- MLC, % Concentration for Bacterioidal Activity (Aspergillus niger): 0.25%
- MLC, % Concentration for Bacterioidal Activity (Candida albicans): 0.25%
